The text below walks through data of patent US20230271965A1, “BICYCLIC HETEROARENES AND METHODS OF THEIR USE” (Kineta, Inc., priority 2020, published 2023).

Chains of the proteins cited; added tags and fusions are not shown.
UniProt Q9Y2I7, whole entry S696N/L932S/Q995L/T998S/S1033A/Q1183K: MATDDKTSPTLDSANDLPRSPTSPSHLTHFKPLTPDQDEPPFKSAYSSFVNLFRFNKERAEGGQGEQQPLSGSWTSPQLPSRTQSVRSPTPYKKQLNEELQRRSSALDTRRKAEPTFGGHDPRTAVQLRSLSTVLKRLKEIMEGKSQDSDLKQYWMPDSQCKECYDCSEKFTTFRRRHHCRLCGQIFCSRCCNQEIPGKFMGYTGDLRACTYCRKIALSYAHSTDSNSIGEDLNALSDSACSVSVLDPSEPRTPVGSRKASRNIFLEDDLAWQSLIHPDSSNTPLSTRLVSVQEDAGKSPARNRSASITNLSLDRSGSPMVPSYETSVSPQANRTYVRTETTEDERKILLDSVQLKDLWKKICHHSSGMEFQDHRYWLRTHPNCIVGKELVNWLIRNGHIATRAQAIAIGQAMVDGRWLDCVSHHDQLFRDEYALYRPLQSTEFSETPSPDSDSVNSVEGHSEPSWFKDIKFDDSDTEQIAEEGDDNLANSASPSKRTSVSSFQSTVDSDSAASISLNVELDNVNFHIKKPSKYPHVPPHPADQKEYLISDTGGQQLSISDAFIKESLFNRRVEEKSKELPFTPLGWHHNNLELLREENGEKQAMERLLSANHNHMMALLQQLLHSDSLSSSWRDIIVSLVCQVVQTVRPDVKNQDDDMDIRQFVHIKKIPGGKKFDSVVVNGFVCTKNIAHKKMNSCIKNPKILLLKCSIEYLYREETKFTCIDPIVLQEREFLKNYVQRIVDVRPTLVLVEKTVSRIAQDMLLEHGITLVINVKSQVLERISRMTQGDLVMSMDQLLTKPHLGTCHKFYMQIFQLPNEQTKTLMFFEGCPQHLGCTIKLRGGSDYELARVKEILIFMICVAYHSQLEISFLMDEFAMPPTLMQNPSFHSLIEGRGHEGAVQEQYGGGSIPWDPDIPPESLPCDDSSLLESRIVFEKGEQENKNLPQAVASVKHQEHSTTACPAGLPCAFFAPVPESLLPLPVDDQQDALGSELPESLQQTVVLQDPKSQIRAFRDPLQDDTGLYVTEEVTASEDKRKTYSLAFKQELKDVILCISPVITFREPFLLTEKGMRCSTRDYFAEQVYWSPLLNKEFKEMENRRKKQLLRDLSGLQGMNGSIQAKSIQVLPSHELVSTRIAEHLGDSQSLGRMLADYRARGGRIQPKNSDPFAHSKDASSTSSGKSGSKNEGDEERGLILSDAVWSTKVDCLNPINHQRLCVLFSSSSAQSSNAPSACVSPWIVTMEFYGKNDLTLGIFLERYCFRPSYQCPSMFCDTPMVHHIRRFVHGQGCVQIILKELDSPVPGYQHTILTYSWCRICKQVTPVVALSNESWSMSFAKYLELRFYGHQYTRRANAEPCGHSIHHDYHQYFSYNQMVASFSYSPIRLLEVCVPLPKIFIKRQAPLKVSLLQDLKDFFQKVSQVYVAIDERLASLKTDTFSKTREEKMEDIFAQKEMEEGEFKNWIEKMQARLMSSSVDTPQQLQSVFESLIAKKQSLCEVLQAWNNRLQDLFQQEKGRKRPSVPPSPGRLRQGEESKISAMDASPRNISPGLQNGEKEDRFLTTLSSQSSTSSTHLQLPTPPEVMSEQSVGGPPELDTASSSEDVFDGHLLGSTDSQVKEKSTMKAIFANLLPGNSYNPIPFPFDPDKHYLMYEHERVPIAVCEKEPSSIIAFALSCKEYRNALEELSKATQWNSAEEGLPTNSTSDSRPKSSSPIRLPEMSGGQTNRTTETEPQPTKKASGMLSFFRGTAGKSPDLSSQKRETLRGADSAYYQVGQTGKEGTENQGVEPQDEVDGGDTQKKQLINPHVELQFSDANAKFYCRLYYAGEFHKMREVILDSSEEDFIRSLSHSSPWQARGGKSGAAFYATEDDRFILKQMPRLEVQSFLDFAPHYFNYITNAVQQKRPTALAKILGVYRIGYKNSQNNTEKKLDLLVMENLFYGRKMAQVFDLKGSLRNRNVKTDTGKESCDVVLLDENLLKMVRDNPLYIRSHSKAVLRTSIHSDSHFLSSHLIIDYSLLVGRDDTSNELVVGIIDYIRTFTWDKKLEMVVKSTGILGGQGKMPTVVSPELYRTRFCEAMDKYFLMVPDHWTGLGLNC

The assay concerns the target full-length human PIKFYVE (GST-PIKFYVE) (Homo sapiens, UniProt Q9Y2I7, L932S/Q1183K/Q995L/S1033A/S696N/T998S). The assay can be described thus: PIKfyve biochemical assay (ADP-Glo Kinase assay, Carna Biosciences). As to conditions: read-out: hPIKfyve IC50.

`c1ccc(N2CCc3c(COc4cccnc4)nc(N4CCOCC4)nc32)cc1`: the IC50 fell in the range of 100 to 1000 nM.
